Data as given in PubChem BioAssay AID1195 (EPA DSSTox, 2008).

System: human maximum recommended daily dose, FDA database
Assay: DSSTox (FDAMDD) FDA Maximum (Recommended) Daily Dose Database
Conditions: active compounds read low
From the text: The Food and Drug Administration (FDA) Center for Drug Evaluation and Research, Office of Pharmaceutical Science, Informatics and Computational Safety Analysis Staff's Maximum Recommended Daily Dose (FDAMDD) database contains values for over 1200 pharmaceuticals listed in Martindale: The Extra Pharmacopoeia (1973, 1983, and 1993) and The Physicians' Desk Reference (1995 and 1999). Some classes of chemicals were excluded from the FDAMDD database due to their unsuitability for most QSAR modeling programs. These were inorganic chemicals, high molecular weight polymers (>5000 Daltons), fibers, salts, mixtures of organic chemicals, and small molecules (<100 Daltons). FDAMDD is the non-proprietary portion of the database that was used in the QSAR analysis reported in the Main Citation. DSSTox FDAMDD has fewer substance records than the original MRDD Source database due to consolidation of partial structures (i.e., complexed entities) into a single record and elimination of duplicate entries. […]
Maximum recommended daily dose (or maximum recommended therapeutic dose) values were determined from pharmaceutical clinical trials that employed an oral route of exposure and daily treatments, usually for 3-12 months. […]

| Structure (SMILES) | maximum recommended daily dose (mmol/kg-bw/day) (TherapeuticCategory: narcotic analgesic) | maximum recommended daily dose (mmol/kg-bw/day) (TherapeuticCategory: cardiac depressant) |
| --- | --- | --- |
| CCC(=O)N(c1ccccn1)C(C)CN1CCCCC1 (configuration not stated) | 0.00908 |  |
| CC(C)N1CCC(N(C(=O)Cc2ccccc2)c2ccc(Cl)cc2)CC1 |  | 0.018 |
